The other results are listed elsewhere or left out.

For the test, the system named is A. baumannii ATCC 17978. Put plainly: relative growth (fraction of control); higher = less inhibition. As to conditions: 50 µM.
With `COc1ccc(CNC(=O)C[C@H]2C[C@@H]3c4cc(NC(=O)NC5CCCC5)ccc4O[C@@H]3[C@H](CO)O2)cc1`, the relative growth was 1.12.
With `O=C(O)CCc1nc2ccccc2[nH]c1=O`, the relative growth was found to be 0.875.
Regarding `O=C(c1ccccc1)N1Cc2ccccc2[C@H]2OC(c3ccc(OCCCO)cc3)=N[C@@]2(Cc2ccccc2)C1=O`, the relative growth worked out at 0.985.
In turn, `CCNC(=O)C[C@@H]1CC[C@@H](NC(=O)C2CCOCC2)[C@H](CO)O1` showed a relative growth of 1.08.
Compound `C[C@H]1[C@H]([Si](C)(C)F)[C@@H](CCO)O[C@]12C(=O)N(Cc1ccccc1)c1ccc(N3C(=O)c4ccccc4Oc4ccccc43)cc12` yielded a relative growth of 0.866.
Compound `C=CC[C@@H]1/C=C(\C)C[C@H](C)C[C@H](OC)[C@H]2O[C@@](O)(C(=O)C(=O)N3CCCC[C@H]3C(=O)O[C@H](/C(C)=C/C3CC[C@@H](O)[C@H](OC)C3)[C@H](C)[C@@H](O)CC1=O)[C@H](C)C[C@@H]2OC` (stereo partly drawn) registered a relative growth of 0.997.
Regarding `CCOC(=O)C[C@@H](N)c1ccccc1Cl`, the relative growth amounted to 0.929.
The result for `Nc1nc2ncc(=O)[nH]c2c(=O)[nH]1` reads 1.01; that for `O=C(C[C@H]1CC[C@H](NS(=O)(=O)c2ccccc2F)[C@H](CO)O1)NCCCN1CCOCC1`, 1.07.
Turning to `CN(C)CC(=O)N[C@@H]1CC[C@@H](CCNC(=O)C2CCC2)O[C@@H]1CO`, the relative growth was 1.05.
With `Cl.Cl.O=C(O)COCCN1CCN([C@H](c2ccccc2)c2ccc(Cl)cc2)CC1`, the relative growth is 1.01.
`CCCCOc1cc(C(=O)NCCN(CC)CC)c2ccccc2n1.Cl` had a relative growth of 1.01.
With `CC[C@H]1[C@H](OC(C)=O)C2=C(CC3C(=O)OC(=O)/C3=C/[C@H]1CC)C(=O)OC2=O` (stereo partly drawn), the relative growth was 1.2.
In turn, `Nc1nc2nn[nH]c2c(=O)[nH]1` had a relative growth of 1.02.
The result for `Cc1[nH]c(=O)[nH]c(=O)c1/C=C/C(=O)O` reads 0.958; that for `COC(=O)CNc1nc(OC)nc(N(C)C)n1`, 0.889; that for `C=CCC[C@H](Cc1ccc(F)cc1)C(=O)O[C@H](CNC(=O)[C@H](CC=C)CC(=O)N(CCO)Cc1ccccc1)c1ccccc1`, 1.35.
In turn, `C[C@@H]1CN([C@H](C)CO)C(=O)c2cc(C#CC3(O)CCCC3)cnc2O[C@@H]1CN(C)S(C)(=O)=O` registered a relative growth of 1.09.
In turn, `O=C(CN1CCOCC1)N[C@H]1CC[C@@H](CCn2cc(C3CCCC3)nn2)O[C@@H]1CO` registered a relative growth of 0.957.
In the case of `OCC(O)CN1CCN(c2ccccc2)CC1` (stereo not drawn), the relative growth was found to be 0.93.
The result for `[Cl][Ca][Cl]` reads 1.16; that for `CCOC(=O)N(C)C[C@H]1OCc2cnnn2CCCC(=O)N([C@@H](C)CO)C[C@@H]1C`, 1.11.
The result for `O=C(C[C@@H]1CC[C@@H]2[C@H](COC[C@H](O)CN2S(=O)(=O)c2cccc(Cl)c2)O1)N1CCOCC1` reads 1.05; that for `COc1cc2c(cc1OC)C(=O)OC2`, 0.94.
`C[C@@H]1CN([C@@H](C)CO)S(=O)(=O)c2ccc(C#Cc3ccccc3)cc2O[C@H]1CN(C)S(=O)(=O)c1cn(C)cn1` returned a relative growth of 1.03.
The compound `O=C(C[C@@H]1CC[C@@H]2[C@H](COC[C@@H](O)CN2S(=O)(=O)c2ccc(Cl)cc2)O1)N[C@@H]1CCN(Cc2ccccc2)C1` yielded a relative growth of 0.882.
As for `C[C@@H]1O[C@@H](OC[C@H]2O[C@@H](OCCc3ccccc3)[C@H](O)[C@@H](O)[C@@H]2O)[C@H](O)[C@H](O)[C@H]1O`, the relative growth worked out at 1.1.
The compound `Cl.OC(CCN1CCCCC1)(c1ccccc1)C1CCCCC1` (stereo not drawn) showed a relative growth of 1.04.
Compound `Nc1nnc(CC(=O)N2CCCCC2)o1` had a relative growth of 0.949.
Take `COC(=O)[C@@H](NC(=O)Cn1cc(C(=O)NO)nn1)c1ccccc1`: the relative growth was determined as 0.996.
As for `O=C(CNc1ccc2c(c1)oc1ccccc12)c1ccc(F)cc1`, the figure is 0.374; as for `COC1=CC(=O)C[C@@H](C)[C@]12Oc1c(Cl)c(OC)cc(OC)c1C2=O`, 1.07.
As for `CCC(=O)NCC[C@@H]1CCc2ccc3c(c21)CCO3`, the figure is 1.44; as for `OC[C@H]1O[C@](O)(CO)[C@@H](O)[C@@H]1O`, 1.1.
The result for `C[C@@H]1CCCCO[C@@H](CN(C)Cc2ccc3c(c2)OCO3)[C@H](C)CN([C@H](C)CO)C(=O)c2cc(NS(=O)(=O)c3cccs3)ccc2O1` reads 0.832; that for `CCOC(=O)N1CCN(C[C@@H](O)Cn2c(=O)c3c(ncn3C)n(C)c2=O)CC1`, 1.06; that for `N#CCC(=O)NCc1ccccn1`, 0.911.
The compound `COc1ccc(-c2coc3cc(O)cc(O)c3c2=O)cc1` showed a relative growth of 1.02.
In turn, `O=C(CN1CCOCC1)NCC[C@@H]1CC[C@H](NC(=O)Cc2ccccn2)[C@H](CO)O1` registered a relative growth of 0.952.
As for `C[C@@H]1CC[C@]2(C(=O)O[C@@H]3O[C@H](CO[C@@H]4O[C@H](CO)[C@@H](O[C@H]5O[C@H](C)[C@H](O)[C@@H](O)[C@H]5O)[C@H](O)[C@H]4O)[C@@H](O)[C@H](O)[C@H]3O)CC[C@]3(C)C(=CCC4[C@@]5(C)C[C@@H](O)[C@H](O)[C@@](C)(CO)C5CC[C@]43C)C2[C@H]1C` (stereo partly drawn), the figure is 0.946; as for `CC(C)(C)c1ccc(CSCc2nc3ccccc3[nH]2)cc1`, 0.987; as for `CC(C)(C)N.CCC[C@H](N[C@@H](C)C(=O)N1[C@H](C(=O)O)C[C@@H]2CCCC[C@@H]21)C(=O)OCC`, 0.985.
As for `O=C(O)Cn1cc(Br)c(=O)[nH]c1=O`, the relative growth worked out at 1.12.
As for `CNC(=O)c1c(I)c(NC(C)=O)c(I)c(C(=O)O)c1I`, the figure is 1.12; as for `CCCOc1cc(N)ccc1C(=O)OCCN(CC)CC.Cl`, 1.08.
In the case of `C[C@H](CO)N1C[C@H](C)[C@H](CN(C)C(=O)C2CCCCC2)Oc2cc(-c3cncnc3)ccc2S1(=O)=O`, the relative growth was 0.976.
Regarding `CC(CO)(CO)NS(=O)(=O)c1ccccc1`, the relative growth was 1.17.
In the case of `CSc1nc(C)cc(OCCO)n1`, the relative growth was found to be 0.988.
Compound `COC(=O)Nc1nc2cc(C(=O)c3ccc(F)cc3)ccc2[nH]1` came in with a relative growth of 1.17.
Turning to `COc1ccc(CC(=O)c2ccc(O)cc2O)cc1`, the relative growth was 0.913.
As for `COc1ccc(-c2cc(=O)c3c(O)cc(OC)c(OC)c3o2)c(OC)c1`, the figure is 1.18.
As for `O=C(C[C@H]1C=C[C@H](NC(=O)Nc2ccc3c(c2)OCO3)[C@H](CO)O1)NCCCN1CCOCC1`, the figure is 1.04; as for `CCOC(=O)c1ccc(O)cc1`, 1.13.
`COC(=O)Cn1c(=N)n(C)c2ccccc21` yielded a relative growth of 1.21.
With `C/C(=C/C(=O)N1CCN(C)CC1)C(=O)O`, the relative growth turned out to be 0.936.
`O=C(CN1CCOCC1)N[C@@H]1CC[C@H](CCNC(=O)C2CCC2)O[C@H]1CO` had a relative growth of 0.955.
On to `Cc1ccc(C(=O)c2ccc(CC(=O)[O-])n2C)cc1.[Na+]`, for which the relative growth is 1.05.
With `COc1ccc2cc1Oc1ccc(cc1)C[C@H]1c3c(cc4c(c3Oc3cc5c(cc3OC)CCN(C)[C@@H]5C2)OCO4)CCN1C`, the relative growth was 1.

Values taken from published antibiotic growth screens (doi:10.1038/s41589-023-01349-8).
